Assay results published in ChEMBL document CHEMBL5726830, “Compounds and their use as BACE inhibitors” (2018).

The chains behind the UniProt entries cited, without tags or fusion partners. Where a name states a change or a piece, a line headed by the entry shows the natural chain unless it says otherwise.
UniProt P56817: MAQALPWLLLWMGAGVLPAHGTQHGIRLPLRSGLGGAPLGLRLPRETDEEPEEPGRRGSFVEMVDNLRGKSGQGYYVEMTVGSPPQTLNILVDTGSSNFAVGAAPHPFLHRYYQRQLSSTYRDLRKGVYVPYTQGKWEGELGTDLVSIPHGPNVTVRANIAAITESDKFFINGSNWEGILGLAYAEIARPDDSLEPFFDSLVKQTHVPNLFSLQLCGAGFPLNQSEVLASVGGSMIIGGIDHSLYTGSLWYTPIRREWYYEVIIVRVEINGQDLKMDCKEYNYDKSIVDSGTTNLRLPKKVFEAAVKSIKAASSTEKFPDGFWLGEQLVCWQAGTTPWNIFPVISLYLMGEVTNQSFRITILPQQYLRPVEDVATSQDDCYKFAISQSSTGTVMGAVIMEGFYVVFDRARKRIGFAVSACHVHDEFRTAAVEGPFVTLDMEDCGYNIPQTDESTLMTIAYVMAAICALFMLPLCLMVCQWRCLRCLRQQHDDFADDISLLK

Target: Beta-secretase 1 (Homo sapiens, UniProt P56817)
Assay: FRET Assay: The enzyme (truncated form) was diluted to 6 μg/mL (stock 1.3 mg/mL) and the substrate (Europium)[…](Qsy7) to 200 nM (stock 120 μM) in reaction buffer (NaAcetate, chaps, triton x-100, EDTA pH4.5). The robotic systems Biomek FX and Velocity 11 were used for all liquid handling and the enzyme and substrate solutions were kept on ice until they were placed in the robotic system. Enzyme (9 μl) was added to the plate then 1 μl of compound in dimethylsulphoxide was added, mixed and pre-incubated for 10 minutes. Substrate (10 μl) was then added, mixed and the reaction proceeded for 15 minutes at r.t. The reaction was stopped with the addition of Stop solution (7 μl, NaAcetate, pH 9). The fluorescence of the product was measured on a Victor II plate reader with an excitation wavelength of 340 nm and an emission wavelength of 615 nm. The assay was performed in a Costar 384 well round bottom, low volume, non-binding surface plate (Corning #3676). […] The dimethylsulphoxide control, instead of test compound, defined the 100% activity level and 0% activity was defined by wells lacking enzyme (replaced with reaction buffer).

Row | Structure (SMILES) | IC50
1 | CO[C@H]1CC[C@]2(CC1)Cc1ccc(-c3cncc(Cl)c3)cc1C21N=C(C)C(N)=N1 (some centres not stated) | 1.1 nM
2 | CO[C@H]1CC[C@]2(CC1)Cc1ccc(-c3cc(Cl)cc(C#N)c3)cc1C21N=C(C)C(N)=N1 (some centres not stated) | 0.63 nM
